The values below come from patent publication US20120225909A1, “INDAZOLE ANALOG” (priority 2009, published 2012).

Sequences of proteins named here, by UniProt entry; tags and fusion partners are left off.
UniProt P13945, whole entry: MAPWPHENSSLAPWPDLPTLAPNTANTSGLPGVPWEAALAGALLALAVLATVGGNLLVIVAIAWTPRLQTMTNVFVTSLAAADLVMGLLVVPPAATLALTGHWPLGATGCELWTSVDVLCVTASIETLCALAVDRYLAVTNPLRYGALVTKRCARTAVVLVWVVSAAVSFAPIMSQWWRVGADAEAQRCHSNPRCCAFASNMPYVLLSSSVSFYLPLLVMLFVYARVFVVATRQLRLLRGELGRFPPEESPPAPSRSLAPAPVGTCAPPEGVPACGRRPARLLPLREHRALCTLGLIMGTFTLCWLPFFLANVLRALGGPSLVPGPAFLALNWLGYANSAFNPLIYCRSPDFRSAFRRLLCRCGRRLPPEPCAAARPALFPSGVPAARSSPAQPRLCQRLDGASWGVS
UniProt P08588, whole entry: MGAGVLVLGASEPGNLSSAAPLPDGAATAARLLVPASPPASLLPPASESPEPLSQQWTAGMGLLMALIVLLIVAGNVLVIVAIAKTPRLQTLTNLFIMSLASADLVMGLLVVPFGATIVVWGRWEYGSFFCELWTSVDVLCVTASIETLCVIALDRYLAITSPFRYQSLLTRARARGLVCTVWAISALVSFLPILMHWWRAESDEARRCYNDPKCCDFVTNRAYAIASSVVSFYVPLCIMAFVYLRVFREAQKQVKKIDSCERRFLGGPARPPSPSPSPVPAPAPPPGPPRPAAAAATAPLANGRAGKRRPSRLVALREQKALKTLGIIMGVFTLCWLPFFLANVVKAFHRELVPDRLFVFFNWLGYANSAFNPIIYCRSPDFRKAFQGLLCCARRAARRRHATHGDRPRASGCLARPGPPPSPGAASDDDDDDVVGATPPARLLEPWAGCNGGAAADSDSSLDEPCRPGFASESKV
UniProt P35348, whole entry: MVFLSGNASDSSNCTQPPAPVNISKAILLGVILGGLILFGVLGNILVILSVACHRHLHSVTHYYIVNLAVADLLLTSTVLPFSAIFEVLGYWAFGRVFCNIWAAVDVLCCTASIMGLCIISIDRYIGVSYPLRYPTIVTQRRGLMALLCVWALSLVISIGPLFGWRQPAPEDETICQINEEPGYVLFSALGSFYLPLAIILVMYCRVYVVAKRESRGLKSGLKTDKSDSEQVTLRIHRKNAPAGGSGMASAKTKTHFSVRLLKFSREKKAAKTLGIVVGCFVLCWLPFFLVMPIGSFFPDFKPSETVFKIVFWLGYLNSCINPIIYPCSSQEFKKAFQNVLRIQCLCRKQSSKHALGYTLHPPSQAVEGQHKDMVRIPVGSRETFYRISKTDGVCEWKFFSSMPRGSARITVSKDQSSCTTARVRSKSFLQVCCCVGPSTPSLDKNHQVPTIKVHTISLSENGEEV
UniProt P35368, whole entry: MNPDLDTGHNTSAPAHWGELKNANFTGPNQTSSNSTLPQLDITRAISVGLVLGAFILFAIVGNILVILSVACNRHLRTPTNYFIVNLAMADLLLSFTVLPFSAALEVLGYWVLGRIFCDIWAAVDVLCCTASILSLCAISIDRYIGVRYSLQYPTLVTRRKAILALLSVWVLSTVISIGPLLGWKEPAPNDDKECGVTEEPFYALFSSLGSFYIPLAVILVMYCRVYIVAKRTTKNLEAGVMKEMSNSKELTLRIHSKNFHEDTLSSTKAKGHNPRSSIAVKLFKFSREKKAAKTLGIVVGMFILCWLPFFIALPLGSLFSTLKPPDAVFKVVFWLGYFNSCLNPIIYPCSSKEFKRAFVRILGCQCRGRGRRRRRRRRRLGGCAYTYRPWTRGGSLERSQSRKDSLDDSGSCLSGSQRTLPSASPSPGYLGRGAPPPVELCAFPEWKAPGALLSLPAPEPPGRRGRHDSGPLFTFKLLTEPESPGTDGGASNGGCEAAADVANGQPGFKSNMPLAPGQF
UniProt P25100, whole entry: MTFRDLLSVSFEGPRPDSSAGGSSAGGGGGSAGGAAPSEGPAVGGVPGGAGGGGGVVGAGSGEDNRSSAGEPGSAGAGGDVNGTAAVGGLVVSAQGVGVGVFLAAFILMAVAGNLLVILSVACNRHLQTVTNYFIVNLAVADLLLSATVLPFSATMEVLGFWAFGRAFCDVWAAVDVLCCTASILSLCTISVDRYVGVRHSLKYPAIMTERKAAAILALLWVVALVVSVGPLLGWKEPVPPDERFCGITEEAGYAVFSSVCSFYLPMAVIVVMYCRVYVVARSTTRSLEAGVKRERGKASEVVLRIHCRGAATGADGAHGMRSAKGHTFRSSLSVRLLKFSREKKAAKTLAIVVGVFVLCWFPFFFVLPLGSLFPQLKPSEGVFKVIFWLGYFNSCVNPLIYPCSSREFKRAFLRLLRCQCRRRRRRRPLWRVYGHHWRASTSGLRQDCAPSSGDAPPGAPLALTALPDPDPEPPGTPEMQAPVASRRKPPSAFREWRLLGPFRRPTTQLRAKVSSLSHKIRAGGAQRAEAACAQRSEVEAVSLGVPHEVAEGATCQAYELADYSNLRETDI

Read-outs that look alike come from different tables or passages of the source.

For data set [1], the target named is T1, human β3-adrenergic receptor (Homo sapiens, UniProt P13945). Put plainly: Test Case 1-A: human β3-adrenergic receptor agonist activity (cAMP-EIA, 24-well). The following applies: maximum response of isoproterenol = 100%. Format: cell-based.
The target of data set [2] is T2, human β1-adrenergic receptor (Homo sapiens, UniProt P08588). In words: Test Case 2-A: human β1-adrenergic receptor agonist activity. Format: cell-based. The following applies: for β1 receptor I.A.: maximum response of isoproterenol = 100%.
Data set [3] addresses T2, human β1-adrenergic receptor. In words: Test Case 2-C: human β1-adrenergic receptor agonist activity (Cerep cellular functional GPCR, beta 1). As to conditions: concentration 10 μM, isoproterenol = 100%. Format: cell-based.
Data set [4] has as its target T3, human β2-adrenergic receptor (Homo sapiens, UniProt P07550). In words: Test Case 3-A: human β2-adrenergic receptor agonist activity. As to conditions: maximum response of isoproterenol = 100%. The data set is classed as cell-based.
Data set [5] concerns the target T3, human β2-adrenergic receptor. Put plainly: Test Case 3-C: human β2-adrenergic receptor agonist activity (Cerep cellular functional GPCR, beta 2). The following applies: concentration 10 μM, isoproterenol = 100%. The data set is classed as cell-based.
Data set [6] addresses T4, human α1A-adrenergic receptor (Homo sapiens, UniProt P35348). Put plainly: Test Case 4-A: human α1A-adrenergic receptor agonist activity (HEK293, Ca flux, Fura-2). Format: cell-based. As to conditions: for α1A receptor I.A.: maximum response of norepinephrine = 100%.
Data set [7] deals with T4, human α1A-adrenergic receptor. In words: Test Case 4-B: human α1A-adrenergic receptor agonist activity (Cerep cellular functional GPCR, alpha 1A). The data set is classed as cell-based. The following applies: concentration 10 μM; for α1 receptor % of Control Agonist Response, Control; Epinephrine: epinephrine = 100%; for α1 receptor % of Control Agonist Response, Control; Norepinephrine: norepinephrine = 100%. The text has this:
Measurement of Human α1A-Adrenergic Receptor Agonist Activity
The human α1A-adrenergic receptor agonist activity] can be measured by […] Functional GPCR·Gs, alpha 1A (Ref. 722-36a) listed on p. 52 of the Cerep 2008 CATALOG IN VITRO PHARMACOLOGY & ADME-TOX.

In data set [8] the test system is pentobarbital-anesthetized rats. In words: Test Case 9: effects on the blood pressure and heart rate in pentobarbital-anesthetized rats. Format: in vivo, rat. As to conditions: anesthetized male SD rats; 3 mg/kg intravenous over 30 seconds; maximum change, mean±standard deviation.
Data set [9] has as its target T1, human β3-adrenergic receptor. In words: Test Case 1-B: human β3-adrenergic receptor agonist activity (cAMP-Screen, 96-well). The data set is classed as cell-based. As to conditions: for β3 receptor I.A.: maximum response of isoproterenol = 100%.
Data set [10] has as its target T2, human β1-adrenergic receptor. In words: Test Case 2-B: human β1-adrenergic receptor agonist activity. The following applies: maximum response of isoproterenol = 100%. Format: cell-based.
For data set [11], the target named is T3, human β2-adrenergic receptor. In words: Test Case 3-B: human β2-adrenergic receptor agonist activity. Format: cell-based. As to conditions: maximum response of isoproterenol = 100%, tested form: HCl.
The target in data set [12] is human α1B-adrenergic receptor (Homo sapiens, UniProt P35368). Put plainly: Test Case 5: human α1B-adrenergic receptor agonist activity (HEK293, SRE-luciferase). The data set is classed as cell-based. The following applies: judged from results of Test Case 5. The method, then:
Measurement of Human α1B-Adrenergic Receptor Agonist Activity
(§1) For the human α1B-adrenergic receptor agonist activity, a human α1B gene inserted into pcDNA3.1 (Invitrogen) and a p-SRE-Luc plasmid (Strata gene) of a luciferase gene expression vector are transiently transfected into HEK293 cells. 40,000 cells/well are sown in 96-well plates and cultured overnight at 37° C. under 5% CO2 in DMEM medium containing 2% fetal calf serum. A solution prepared by dissolving the test compound in DMSO and subsequently diluting it with medium is added to the cells and reacted for a number of hours. The medium is suctioned off, and 30 μL/well of PicaGene LT2.0 (Toyo Ink) is added. The luminescence value is measured 30 minutes later. Taking the maximum response of phenylephrine, the positive control, as 100%, the ratio of the maximum response of each test compound is calculated as the intrinsic activity [I.A. (%)].

For data set [13], the target named is human α1D-adrenergic receptor (Homo sapiens, UniProt P25100). Put plainly: Test Case 6: human α1D-adrenergic receptor agonist activity (HEK293, SRE-luciferase). Format: cell-based. As to conditions: judged from results of Test Case 6. As for the experimental part: Measurement of Human α1D-Adrenergic Receptor Agonist Activity
as §1, with “α1D-adrenergic” for “α1B-adrenergic”, “α1D” for “α1B”, “temporarily” for “transiently”

One may read the EC50 as the concentration giving half of the maximal effect. As to `Cc1n[nH]c2cc(OCCNC[C@H](O)c3ccc(Cl)c(NS(C)(=O)=O)c3)ccc12`, in data set [1], the “β3 receptor I.A.” value is 52%. In addition, the “β1 receptor I.A.” value in data set [2] came to 22%. Besides, the EC50 in data set [2] (read-out: β1 receptor EC50, CHO cells, cAMP) came to 140 nM; in [6] (read-out: α1A receptor EC50, HEK293 cells, Ca flux, Table 3), 39 nM; in data set [6] (read-out: α1A receptor EC50, HEK293 cells, Ca flux, Table 4), 39 nM. For the same compound, the “β1 receptor % of Control Agonist Response” value in [3] turned out to be 44%. For the same compound, the “β2 receptor I.A.” value in data set [4] amounted to 15%. Moreover, the “β2 receptor % of Control Agonist Response” value in data set [5] was 17%. Besides, the “α1A receptor I.A.” value in [6] (Table 3) and in [6] (Table 4) was 59% each time. Besides, in [7], the “α1 receptor % of Control Agonist Response, Control; Epinephrine” value came to 59%. In addition, in data set [7], the “α1 receptor % of Control Agonist Response, Control; Norepinephrine” value is on record as 51%. Also, in [8], the “increase in MBP (%)” value was 12.6 ± 4.1%.
On to `CN(C)C(=O)CCc1n[nH]c2cc(OCCNC[C@H](O)c3cccc(NS(=O)(=O)c4cccc(N)c4)c3)ccc12`, for which the “β3 receptor I.A.” value in [9] (tested form: HCl) is recorded as 104%. The EC50 in data set [9] (read-out: β3 receptor EC50, CHO cells, cAMP, tested form: HCl) came out at 0.2 nM. Also, in data set [10] (tested form: HCl), the “β1 receptor I.A.” value is given as 19%. The “β2 receptor I.A.” value in data set [11] is 6%. In addition, the “α1A receptor I.A.” value in [6] (Table 4, tested form: HCl) came to 0%.
In the case of `COc1n[nH]c2cc(OCCNC[C@H](O)c3cccc(NS(C)(=O)=O)c3)ccc12`, the “β3 receptor I.A.” value in [1] is recorded as 54%; in [9], 67%. In addition, the EC50 in data set [9] (read-out: β3 receptor EC50, CHO cells, cAMP) was 40 nM. Moreover, the “β1 receptor I.A.” value came out at 7.2% in [2] and 2.4% in [10]. Besides, the “β1 receptor % of Control Agonist Response” value in data set [3] turned out to be 13%. The “β2 receptor I.A.” value in data set [4] is on record as 23%. The “β2 receptor % of Control Agonist Response” value in data set [5] is given as 8.2%. Also, the “α1A receptor I.A.” value in [6] (Table 3) and in data set [6] (Table 4) was 60% in each case. In addition, the “α1 receptor % of Control Agonist Response, Control; Epinephrine” value in data set [7] amounted to 62%. The “α1 receptor % of Control Agonist Response, Control; Norepinephrine” value in data set [7] is recorded as 54%. For the same compound, in [12], the α1B agonist activity result is “does not have α1B agonist activity”. Further, the α1D agonist activity result in data set [13] is “does not have α1D agonist activity”. In addition, the “increase in MBP (%)” value in data set [8] is reported as 12.8 ± 4.4%.
